Values joined by “and” are separate entries in the source; they are usually repeats but may differ in a detail not shown here. Identical values can stand only once.
Experiments:
[1] = target: biotinylated actin filament (chicken G actin polymerised with biotinylated G actin) (chicken) (UniProt P68139); test: optical trap (3-bead assay, square wave scanning); single SolM‐II molecule on pedestal bead, actin dumbbell moved ±180 nm; 10 µM ATP; load ± 15 pN; events pooled in 4 pN bins, double exponential fit; ≈22 °C
[2] = target: biotinylated actin filament (chicken G actin polymerised with biotinylated G actin) (chicken) (UniProt P68139); test: optical trap (3-bead assay, square wave scanning); single SolM‐II molecule on pedestal bead, actin dumbbell moved ±180 nm; 500 µM ATP; load ± 15 pN; events pooled in 4 pN bins, double exponential fit; ≈22 °C
[3] = target: biotinylated actin filament (chicken G actin polymerised with biotinylated G actin) (chicken) (UniProt P68139); test: optical trap (3-bead assay, stationary dual beam); single SolM‐II molecule adsorbed on nitrocellulose-coated pedestal bead, actin dumbbell held in two traps; 500 µM ATP; load range ± 2 pN; KS buffer (25 mM KCl, 25 mM Hepes pH 7.4, 4 mM MgCl2, 1 mM DTT); ≈22 °C
[4] = target: biotinylated actin filament (chicken G actin polymerised with biotinylated G actin) (chicken) (UniProt P68139); test: optical trap (3-bead assay, stationary dual beam); single βM‐II molecule adsorbed on pedestal bead, actin dumbbell held in two traps; 80 µM ATP; load range ± 2 pN; KS buffer; ≈22 °C
[5] = target: biotinylated actin filament (chicken G actin polymerised with biotinylated G actin) (chicken) (UniProt P68139); test: optical trap (3-bead assay, square wave scanning); single βM‐II molecule on pedestal bead, actin dumbbell moved ±180 nm; 1 µM ATP; load ± 15 pN; events pooled in 4 pN bins, double exponential fit; ≈22 °C

| Substance | fast detachment rate kf [1] [s⁻¹] | fast detachment rate kf at high load [1] [s⁻¹] | slow detachment rate ks at high load [2] [s⁻¹] | detachment rate (1/τ) at 0.5–1 pN [3] [s^−1] | detachment rate at zero load k0 (fit of the binned rates) [3] [s⁻¹] | detachment rate at zero load k0 (fit of the scatter plot) [3] [s⁻¹] | detachment rate (1/τ) of one load bin [4] [s⁻¹] | detachment rate at zero load k0 (fit of the binned rates) [4] [s⁻¹] | detachment rate at zero load k0 (fit of the scatter plot) [4] [s⁻¹] | fast detachment rate kf at high load [5] [s⁻¹] | slow detachment rate ks [5] |
| --- | --- | --- | --- | --- | --- | --- | --- | --- | --- | --- | --- |
| rabbit native slow skeletal myosin II from Musculus soleus (from UniProt P04461 1-736; Q7M2V4 1-165) (complex) | 243 | 25 | 2 | 17.6 | 22.2 | 27 | – | – | – | – | – |
| rabbit native β‐cardiac myosin II (ventricular) (from UniProt P04461 1-736; Q7M2V4 1-165) (complex) | – | – | – | – | – | – | 33.5 | 43.8 | 41 | 35 | 5.7 s⁻¹ and 2.9 s⁻¹ |

From PMC11657034
